For one series, the target named is OATP1B3 (Homo sapiens, UniProt Q9NPD5). Description: Substrate of OATP1B3, uptake in HEK293 cells. As to conditions: probe substrate 1 μM.
For series [1], the target named is T1, BSEP (Homo sapiens, UniProt O95342). Description: Substrate of BSEP.
In series [2] the target is T1, BSEP. As to the kind of experiment: Inhibitor of BSEP.
The subject of another series is CYP1A2 mRNA. As to the kind of experiment: CYP1A2 gene expression induction in hepatocyte cultures.
A further series deals with CYP2B6 mRNA. Description: CYP2B6 gene expression induction in hepatocyte cultures.
The next series has as its system CYP3A4 mRNA. As to the kind of experiment: CYP3A4 gene expression induction in hepatocyte cultures. As to conditions: for EC50: read-out: EC50, CYP3A4 gene expression.
The next series concerns CYP1A2. Description: CYP1A2 enzyme activity induction in hepatocyte cultures.
A further series concerns CYP3A4/5. As to the kind of experiment: CYP3A4/5 enzyme activity induction in hepatocyte cultures.
Where [3] appears, read: two concentrations per test article.

The chains behind the UniProt entries cited, without tags or fusion partners. Where a name states a change or a piece, a line headed by the entry shows the natural chain unless it says otherwise.
UniProt Q9NPD5: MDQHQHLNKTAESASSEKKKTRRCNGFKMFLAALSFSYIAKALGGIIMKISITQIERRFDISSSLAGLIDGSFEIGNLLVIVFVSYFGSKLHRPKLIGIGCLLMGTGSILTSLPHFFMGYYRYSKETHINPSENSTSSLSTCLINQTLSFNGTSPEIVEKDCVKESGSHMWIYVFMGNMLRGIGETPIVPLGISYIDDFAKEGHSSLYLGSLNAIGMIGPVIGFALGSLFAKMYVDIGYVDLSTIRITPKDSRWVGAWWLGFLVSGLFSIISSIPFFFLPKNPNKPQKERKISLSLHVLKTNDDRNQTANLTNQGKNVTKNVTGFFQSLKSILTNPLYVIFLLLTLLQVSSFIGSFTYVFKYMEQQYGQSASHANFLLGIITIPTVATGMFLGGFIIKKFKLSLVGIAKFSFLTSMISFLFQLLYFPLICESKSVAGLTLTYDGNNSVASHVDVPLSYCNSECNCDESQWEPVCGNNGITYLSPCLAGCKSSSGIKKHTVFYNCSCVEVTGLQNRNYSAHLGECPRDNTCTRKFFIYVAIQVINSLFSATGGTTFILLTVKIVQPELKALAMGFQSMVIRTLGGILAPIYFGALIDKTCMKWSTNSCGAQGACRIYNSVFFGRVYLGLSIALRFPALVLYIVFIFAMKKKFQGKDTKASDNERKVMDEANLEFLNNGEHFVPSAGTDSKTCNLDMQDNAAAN
UniProt O95342, whole entry: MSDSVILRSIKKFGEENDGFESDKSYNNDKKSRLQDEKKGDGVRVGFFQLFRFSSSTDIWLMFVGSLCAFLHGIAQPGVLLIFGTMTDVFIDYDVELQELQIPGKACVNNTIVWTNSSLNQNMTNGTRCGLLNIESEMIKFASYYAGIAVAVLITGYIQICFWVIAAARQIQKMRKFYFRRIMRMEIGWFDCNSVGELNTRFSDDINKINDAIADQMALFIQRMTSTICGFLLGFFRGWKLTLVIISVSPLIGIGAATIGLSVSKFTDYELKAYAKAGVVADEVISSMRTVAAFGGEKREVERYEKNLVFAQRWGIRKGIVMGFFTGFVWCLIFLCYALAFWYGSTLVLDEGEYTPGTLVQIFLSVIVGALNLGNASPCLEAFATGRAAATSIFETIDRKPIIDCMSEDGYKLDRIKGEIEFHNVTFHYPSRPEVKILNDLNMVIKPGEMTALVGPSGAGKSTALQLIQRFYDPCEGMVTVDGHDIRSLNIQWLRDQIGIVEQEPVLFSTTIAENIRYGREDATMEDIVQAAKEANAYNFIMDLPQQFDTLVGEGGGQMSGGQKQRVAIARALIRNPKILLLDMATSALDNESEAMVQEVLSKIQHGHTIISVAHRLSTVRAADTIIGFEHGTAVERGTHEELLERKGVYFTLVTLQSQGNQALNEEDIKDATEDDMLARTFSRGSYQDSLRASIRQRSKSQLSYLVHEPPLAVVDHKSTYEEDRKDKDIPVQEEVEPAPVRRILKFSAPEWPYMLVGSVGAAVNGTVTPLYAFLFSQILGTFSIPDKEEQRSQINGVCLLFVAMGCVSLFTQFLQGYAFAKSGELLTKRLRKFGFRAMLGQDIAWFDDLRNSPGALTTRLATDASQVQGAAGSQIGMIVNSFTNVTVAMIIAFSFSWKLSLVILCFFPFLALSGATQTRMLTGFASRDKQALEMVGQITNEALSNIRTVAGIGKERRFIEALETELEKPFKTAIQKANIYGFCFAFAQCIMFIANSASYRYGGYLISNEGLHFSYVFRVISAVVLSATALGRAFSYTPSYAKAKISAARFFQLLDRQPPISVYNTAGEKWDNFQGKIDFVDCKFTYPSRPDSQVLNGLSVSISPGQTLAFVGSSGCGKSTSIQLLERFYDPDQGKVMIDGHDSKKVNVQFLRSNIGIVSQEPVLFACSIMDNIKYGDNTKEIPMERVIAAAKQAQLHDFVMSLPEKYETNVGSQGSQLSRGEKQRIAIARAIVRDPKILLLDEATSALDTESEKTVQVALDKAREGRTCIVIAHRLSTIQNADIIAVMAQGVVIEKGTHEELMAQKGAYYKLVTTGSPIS

Read-outs that look alike come from different tables or passages of the source.

Results on 2 substances are retold here after US20240139211A1, “METHODS AND COMPOSITIONS FOR TREATING AMYOTROPHIC LATERAL SCLEROSIS” (Amylyx Pharmaceuticals, Inc., priority 2022, published 2024).

On to 3H-cholecystokinin octapeptide, for which the “Fold uptake over the vector control by OATP1B3” value on OATP1B3 was 11.1 fold.

The EC50 is the midpoint of the concentration-response curve. As for ursodeoxycholic acid, the Efflux ratio in the series on Caco-2 cells (1 μM) was 1.08; in the series with Caco-2 cells (10 μM), 1.21. Further, in the series with Caco-2 cells (1 and 10 μM), the Efflux ratios is < 2. Further, the “Substrate of BSEP” value at BSEP [1] (1 and 10 μM) is reported as “not a substrate”; on BSEP [1] (test article 1 and 10 μM), “No”. Also, at BSEP [2] (read-out: Estimated IC50, BSEP, estimated from two concentrations), the potency estimated from few doses is < 500 µM. For the same substance, the “Inhibition of BSEP” value on BSEP [2] (setting [3]) is given as “inhibited”. For the same substance, the “Inhibitor of BSEP” value on BSEP [2] (setting [3]) is on record as “Yes”. Further, the “Maximum fold induction of CYP1A2 gene expression” value with CYP1A2 mRNA (Donor 1, 72±2 h, eight concentrations) is reported as 8.33 fold; with CYP1A2 mRNA (Donor 2) it was 7.96 fold; in the series on CYP1A2 mRNA (Donor 3), 7.66 fold. Further, the “Maximum fold induction of CYP2B6 gene expression” value with CYP2B6 mRNA (Donor 1) is on record as 8.59 fold; in the series on CYP2B6 mRNA (Donor 3), 15.7 fold. For the same substance, the “Emax, CYP3A4 gene expression” value in the series with CYP3A4 mRNA (Donor 1) came out at 23.6 fold; in the series on CYP3A4 mRNA (Donor 2), 34.3 fold; with CYP3A4 mRNA (Donor 3), 11.5 fold. For the same substance, the figures for the “Maximum fold induction of CYP3A4 gene expression” value in the series with CYP3A4 mRNA (Donor 1), with CYP3A4 mRNA (Donor 2) and in the series on CYP3A4 mRNA (Donor 3) were 18.6 fold, 34.0 fold and 11.5 fold, respectively. Further, the “Relative induction score, CYP3A4” value with CYP3A4 mRNA (Donor 1) was 0.714; in the series with CYP3A4 mRNA (Donor 2), 1.85. For the same substance, the “Inducer of CYP3A4 (conclusion)” value in the series on CYP3A4 mRNA (gene expression and enzyme activity, three donors) is “moderate inducer of CYP3A4”. Besides, the figures for the EC50 with CYP3A4 mRNA (Donor 1), with CYP3A4 mRNA (Donor 2) and in the series with CYP3A4 mRNA (Donor 3) were 152 µM, 82.8 µM and 62.4 µM, respectively. For the same substance, the “Maximum fold induction of CYP1A2 activity” value in the series with CYP1A2 (Donor 1, 72±2 h, three concentrations) is reported as 4.99 fold; with CYP1A2 (Donor 2) it was 2.40 fold; in the series on CYP1A2 (Donor 3), 4.53 fold. The “Maximum fold induction of CYP3A4/5 activity” value turned out to be 3.74 fold with CYP3A4/5 (Donor 1), 2.75 fold in the series on CYP3A4/5 (Donor 2) and 4.06 fold in the series on CYP3A4/5 (Donor 3).
